The text below walks through data of patent US20210061908A1.

By UniProt entry, the sequences of proteins in these tests, tags left out. Residues count along the entry.
UniProt P0C673, 23-240 limits assumed: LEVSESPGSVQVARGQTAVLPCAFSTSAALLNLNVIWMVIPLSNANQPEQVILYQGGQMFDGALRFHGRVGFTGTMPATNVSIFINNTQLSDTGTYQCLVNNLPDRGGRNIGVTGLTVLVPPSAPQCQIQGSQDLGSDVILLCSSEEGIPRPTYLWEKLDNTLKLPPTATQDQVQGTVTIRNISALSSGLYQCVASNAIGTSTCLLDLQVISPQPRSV
UniProt Q5DX21, 23-241: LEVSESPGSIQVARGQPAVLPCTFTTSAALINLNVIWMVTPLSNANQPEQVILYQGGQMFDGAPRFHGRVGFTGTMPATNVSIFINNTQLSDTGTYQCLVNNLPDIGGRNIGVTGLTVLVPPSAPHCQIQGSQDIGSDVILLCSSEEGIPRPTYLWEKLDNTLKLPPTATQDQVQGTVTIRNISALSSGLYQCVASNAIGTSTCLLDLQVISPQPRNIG

Assay [1] addresses extracellular domain (ECD) of murine IGSF11, biotinylated (mouse) (UniProt P0C673). Description: ELISA, scFv; RFU grade (*** >1.0, ** 0.5-1.0, * 0.1-0.5). On the technique in general: In an ELISA, binding on a coated surface is turned into a signal by an enzyme label.
Assay [2] has as its target extracellular domain (ECD) of human IGSF11 (VSIG3), biotinylated (human) (UniProt Q5DX21). The assay is described as above.

For the substance A-018 (scFv format), the relative fluorescent units (RFU), ELISA in assay [1] and in assay [2] was 0.5 to 1 rfu in each case.
